Rango release inh – prevents RanGTP from dissociating the Rango-importin beta complex; O95149+P62826; Potency, µM (doses to about 46.1 µM), for inactives: at the highest dose activity change, negative = inhibition; 340,000 tested, 0.071% active; Biochemical FRET Rango-importin beta, RanGTP-induced dissociation; note: % of control where 0% means no effect; nearly all actives have a fitted effect of over 45% in size
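Compounds preincubate 5 min with complex of recombinant Rango and importin beta in PBS with 1 mM DTT. Ran (0.6 uM) loaded with 2 mM GTP plus 0.2 uM RCC1 starts dissociation; FRET is recorded 45 min later.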
gsp antag – gsp mutant antagonism. Potency, µM (top dose mostly 76.9 µM), for the others: at the highest dose activity change, negative = inhibition, most hits filed as inhibitors. gsp-mutant cells, cAMP HTRF, 30 min. AID 624288. 340,000 tested, 0.4% active; calls by dose curve; cell line not stated here;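 note: intracellular cAMP measured with PDE inhibitor Ro 20-1724 present during compound exposure; % is set by controls: 0 for no effect and ±100 for the full control effect; nearly all actives have a fitted effect of over 65% in size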
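Cells, 2000/well, grown 16–24 h in DMEM 10% FBS with 0.5 mg/ml G418, then compounds plus […] (300 uM addition stock), 30 min at 37C. cAMP read by HTRF (cAMP-d2 and anti-cAMP antibody-K in lysis buffer) after 30 min RT.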
gsp agonist – gsp mutant agonism. gsp mutant cells, cAMP HTRF, 30 min. Potency, µM (series often up to 76.9 µM), without a hit: at the top dose activation (cAMP increase), most hits filed as activators. 340,000 tested, 0.13% active. AID 624287; active = well fitted activation curve with a large enough effect; inconclusive = small, poorly fitted or top-dose-only effect, or another doubt; inactive = no such curve, though single readings can be large or run the other way; cell line not stated here;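 note: phosphodiesterase inhibitor Ro 20-1724 added with compounds to block cAMP breakdown; nearly all actives have a fitted effect of over 60% in size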
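Cells stably selected in G418 were plated at 2000/well, grown 16-24 hr, then given compounds in DMSO with the PDE inhibitor […] (300 uM solution added) for 30 min at 37C; cAMP was read by HTRF.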
Rango-impB inh – inhibitors of Rango-importin beta complex formation; Q14974; 340,000 tested, 0.031% active; Potency, µM (doses to about 92.2 µM), for inactives: at the highest dose inhibition of complex formation; Rango CFP/YFP FRET sensor + importin beta, 45 min;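 note: 0% = DMSO wells and 100% = buffer wells lacking importin beta; nearly all actives have a fitted effect of over 15% in size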
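Inhibition scored from the CFP 486 nm/YFP 530 nm FRET ratio 45 min after adding 0.125 microM importin beta to 50 nM Rango biosensor preincubated 5 min with compound (room temperature, PBS with DTT, Tween-20, BSA). No-importin wells as positive control.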
Starred values were filed as active, the others as inactive; ? = inconclusive; . = not tested or not shown; [ ] = dose if it differs, or a comment. A selection: hits, their analogues and other compounds. The true share with any hit is near 0.66%. Unless noted, calls come from the whole dose curve. Potency is the fitted concentration of half-maximal effect.

Short keys – A = Rango release inh; B = gsp antag; C = gsp agonist; D = Rango-impB inh
1: CCc1nnc(NC(=O)CSc2nc(-c3ccccc3)nc3ccccc23)s1
  A = 1%; B = 19%; C = 7.9µM*; D = -1%
2: CCc1nnc(NC(=O)CSc2nnc(-c3cc4ccccc4cc3O)n2CC)s1
  A = -11%; B = 28µM*; C = 4%; D = -2%
3: Cc1ccc(S(=O)(=O)N(C)C[C@@H]2OCc3cnnn3CCCC(=O)N([C@H](C)CO)C[C@@H]2C)cc1
  A = .; B = .; C = -101%; D = .
4: O=C(O)COc1ccc(/C=N/NC(=O)c2ccc(-c3csc(Nc4ccc(Cl)cc4)n3)cc2)cc1
  A = -15%; B = -14%; C = -1%[15.4 µM]; D = 52µM*
5: COC(=O)c1c(C)[nH]c(C(=O)C(C)OC(=O)C2CC(=O)N(CCc3ccccc3)C2)c1C (stereo not drawn)
  A = -7%; B = 3%; C = -39%; D = -2%
6: COC(=O)c1c(C)[nH]c(C(=O)C(C)OC(=O)C2CC(=O)N(c3ccc(C)cc3)C2)c1C (stereo not drawn)
  A = 13%; B = 40µM*; C = 28%; D = 2%
7: O=S(=O)(Nc1nc2ccccc2nc1NCc1ccco1)c1ccc(Cl)cc1
  A = 3%; B = -23%; C = ?; D = 3%
8: Cc1noc(C)c1CSc1nc2ccccc2nc1NS(=O)(=O)c1ccc(Cl)cc1
  A = -1%; B = 32µM*; C = 19%; D = -1%
9: COc1ccc(OC)c(CCNC(=O)c2ccc3c(c2)N(Cc2ccc(F)cc2)CCS3)c1
  A = 7%; B = ?; C = 1%; D = -5%
10: COc1ccc(CCNC(=O)c2ccc3c(c2)N(Cc2ccc(F)cc2)CCS3)c(OC)c1
  A = 9%; B = -15%; C = 7.1µM*; D = -2%

Reprinted from the part before: four compounds; new compounds follow.
Short keys – A = Rango release inh; B = gsp antag; C = gsp agonist; D = Rango-impB inh
7: O=S(=O)(Nc1nc2ccccc2nc1NCc1ccco1)c1ccc(Cl)cc1
  A = 3%; B = -23%; C = ?; D = 3%
8: Cc1noc(C)c1CSc1nc2ccccc2nc1NS(=O)(=O)c1ccc(Cl)cc1
  A = -1%; B = 32µM*; C = 19%; D = -1%
9: COc1ccc(OC)c(CCNC(=O)c2ccc3c(c2)N(Cc2ccc(F)cc2)CCS3)c1
  A = 7%; B = ?; C = 1%; D = -5%
10: COc1ccc(CCNC(=O)c2ccc3c(c2)N(Cc2ccc(F)cc2)CCS3)c(OC)c1
  A = 9%; B = -15%; C = 7.1µM*; D = -2%
11: CCOc1ccccc1C(=O)NCc1ccc2c(c1)OCO2
  A = 1%; B = 1%; C = -6%; D = -1%
12: CCOc1cccc2cc(-c3nnc(NCc4ccc5c(c4)OCO5)s3)c(=O)oc12
  A = 1.3µM*; B = 10%; C = -14%; D = ?
13: Cc1cc(SCC(=O)NCC2CCCO2)nc2ccccc12 (stereo not drawn)
  A = -7%; B = 11%; C = ?; D = 37µM*
14: Cc1cc(C(=O)CSc2nc3ccccc3c(=O)[nH]2)c(C)n1CC1CCCO1 (stereo not drawn)
  A = -6%; B = 35µM*; C = 6%[15.4 µM]; D = 5%
15: O=C(Cn1cnc2c(oc3ccccc32)c1=O)NCC1CCCO1 (stereo not drawn)
  A = -3%; B = 29%; C = 7.1µM*; D = 0%
16: Cc1cc(C(=O)COC(=O)CCc2nc3ccccc3c(=O)[nH]2)c(C)n1CC1CCCO1 (stereo not drawn)
  A = -17%; B = -4%; C = -1%[15.4 µM]; D = -3%
17: Cc1cc(SCC(=O)N/N=C/c2ccc(O)cc2O)nc2ccccc12
  A = -7%; B = 35µM*; C = ?; D = -1%
18: Cc1cc(SCC(=O)NC2CC2)nc2ccccc12
  A = -10%; B = 15%; C = 22%[15.4 µM]; D = -3%
19: COc1ccc2c(C)cc(SCC(=O)NC3CCCC3)nc2c1
  A = 4%; B = 14%; C = 11µM*; D = 0%
20: CC(C)(C)C1CCc2c(sc(NC(=O)C3CC=CCC3C(=O)O)c2C#N)C1 (stereo not drawn)
  A = -8%; B = 40µM*; C = -4%; D = 7%
21: N#Cc1c(NC(=O)C2CC=CCC2C(=O)O)sc2c1CCCCCC2 (stereo not drawn)
  A = 6%; B = -24%; C = 1%; D = 1%
22: O=C1NC(=S)S/C1=C/c1ccc(N2CCOCC2)o1
  A = ?; B = ?; C = 29%; D = ?
23: COc1ccc2cc(/C=C3\SC(=S)NC3=O)c(N3CCOCC3)nc2c1
  A = -11%; B = 35µM*; C = 24%; D = ?
24: COc1ccc([C@@H]2C[C@H]3[C@@H](CN2S(=O)(=O)c2ccccc2)C(=O)C[C@@H](c2ccc(C)cc2)N3S(=O)(=O)c2ccc(C)cc2)cc1
  A = .; B = .; C = -4%; D = .
25: COc1cc(CCNc2ccc3nnc(-c4ccccc4)n3n2)cc(OC)c1OC
  A = 9%; B = -6%; C = 23%; D = 0%
26: COc1ccc2nnc(-c3ccccc3)n2n1
  A = 2%; B = 16%; C = 16µM*; D = -2%
27: Cc1ccc([N+](=O)[O-])cc1N=Nc1c(-c2ccc([N+](=O)[O-])cc2)[nH]n(C(N)=S)c1=O
  A = 2%; B = 13µM*; C = -2%; D = -7%
28: CCn1c(SCC(=O)Nc2nccs2)nnc1-c1ccc(S(=O)(=O)N2CCCCCC2)cc1
  A = -17%; B = 40µM*; C = 20%; D = 1%
29: CCC(=O)Nc1sc2c(c1C(=O)OC)CCN(Cc1ccccc1)C2
  A = 41µM*; B = -5%; C = -30%; D = ?
30: O=C(O)c1c[nH]c2c([N+](=O)[O-])cccc2c1=O
  A = -10%; B = 6%; C = -5%[15.4 µM]; D = -3%
31: COc1nc(-c2ccccc2)c2cc(Br)ccc2n1
  A = 3%; B = 3%; C = 13µM*; D = 6%
32: NNc1nc(-c2ccccc2)c2cc(Br)ccc2n1
  A = 0%; B = 0%; C = -62%; D = 4%
33: Nc1ccc(S(=O)(=O)c2ccc(N3CCOCC3)c(N)c2)cc1
  A = .; B = .; C = -51%; D = .
34: CSc1nsc2nc(=O)c(/C=C3\C=Nc4ccccc43)c(N)n12
  A = ?; B = 32µM*; C = -4%; D = ?
35: Cc1ccccc1-c1ccc2c(c1)O[C@@H](CN(C)C(=O)Nc1ccc(C(F)(F)F)cc1)[C@H](C)CN([C@@H](C)CO)S2(=O)=O
  A = .; B = .; C = 2%; D = .
36: O=C(Cc1ccccc1)NNC(=O)c1ccccc1C(=O)O
  A = -1%; B = 11µM*; C = ?; D = -2%
37: Cc1ccc(NC(=O)COc2ccccc2C(N)=O)cc1S(=O)(=O)N1CCCCCC1
  A = 5%; B = 35µM*; C = ?; D = -2%
38: COc1ccc(NC(=O)COc2ccccc2C(N)=O)cc1S(=O)(=O)N1CCCCC1
  A = .; B = .; C = -1%; D = .
39: Cc1ccc(NC(=O)COc2ccc(N(C)C(=O)C(C)(C)C)cc2)cc1S(=O)(=O)N1CCCCC1
  A = -16%; B = 35µM*; C = -9%; D = 1%
40: COc1cc(C(C)=O)ccc1OCC(=O)Nc1ccc(C)c(S(=O)(=O)N2CCCCCC2)c1
  A = 27%; B = 32µM*; C = 4%; D = 5%
41: CN(C)CCC1(c2ccccc2)CCN(C)C1=O (stereo not drawn)
  A = .; B = .; C = 5%; D = .
42: Cc1cc2cc(CN3C(=O)c4ccccc4C3=O)ccc2n1C
  A = -8%; B = 21%; C = 32µM*; D = 0%
43: Cc1ccc(S(=O)(=O)NCc2ccc3c(c2)cc(C)n3C)cc1
  A = -29%; B = 3%; C = 35%; D = ?
44: COc1ccc(C(=O)CSc2nnc(Cn3cnc4ccccc43)o2)cc1
  A = -6%; B = 40µM*; C = -13%; D = 0%
45: CCOC(=O)COn1c(=O)c(-c2ccc(C)cc2)[n+]([O-])c2ccccc21
  A = -9%; B = 5%; C = 6%; D = -2%
46: CCOC(=O)COn1c(=O)c(-c2ccco2)[n+]([O-])c2ccccc21
  A = 18µM*; B = 2%; C = -8%; D = ?
47: O=[N+]([O-])c1ccc(-c2nc(-c3cccs3)c(-c3cccs3)[nH]2)cc1
  A = -17%; B = ?; C = 24%[15.4 µM]; D = 9.2µM*
48: C[C@@H]1CN([C@@H](C)CO)S(=O)(=O)c2ccc(Br)cc2O[C@H]1CN(C)C(=O)c1ccccc1
  A = .; B = .; C = -26%; D = .
49: COC(=O)c1ccc(/C(O)=C(\C#N)c2nc3ccccc3s2)cc1
  A = -19%; B = 18µM*; C = 11%; D = 0%
50: COC(=O)c1ccc(CC(=O)c2nc3ccccc3s2)cc1
  A = -9%; B = 2%; C = 5%[15.4 µM]; D = -4%
51: O=C1c2ccccc2C(=O)N1CCCCc1cn(C[C@H]2CC[C@@H]([C@@H]3CC[C@H](Cn4cc(CCCCN5C(=O)c6ccccc6C5=O)nn4)O3)O2)nn1
  A = -10%; B = 32µM*; C = .; D = 0%

Bioassay records as filed in PubChem.
